# Assay results as given in ChEMBL document CHEMBL1773020, “Discovery of fused bicyclic agonists of the orphan G-protein coupled receptor GPR119 with in vivo activity in rodent models of glucose control” (Bioorg Med Chem Lett, 2011).
# Target: T1, Glucose-dependent insulinotropic receptor (Homo sapiens) (UniProt Q8TDV5)
# T1 sequence (whole entry): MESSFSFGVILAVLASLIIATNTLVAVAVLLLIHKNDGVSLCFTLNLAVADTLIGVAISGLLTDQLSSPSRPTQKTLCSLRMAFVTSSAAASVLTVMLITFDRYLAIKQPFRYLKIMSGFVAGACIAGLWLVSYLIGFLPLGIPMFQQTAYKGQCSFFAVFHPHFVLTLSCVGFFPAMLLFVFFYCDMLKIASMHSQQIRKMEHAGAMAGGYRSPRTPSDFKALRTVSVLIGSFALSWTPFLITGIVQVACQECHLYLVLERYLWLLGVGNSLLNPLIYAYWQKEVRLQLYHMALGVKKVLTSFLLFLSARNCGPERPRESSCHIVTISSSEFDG
# Assay: Agonist activity at human GPR119 by melanophore assay relative to AR231453
# Format: functional
# Method in brief: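 Melanophores transfected with human GPR119. Apparent Emax is the curve height normalized to the positive control AR231453, which is defined as a full agonist (100% efficacy).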
structure (smiles),measurement,value
CC(C)OC(=O)N1CCC(Oc2ncnc3c2cnn3-c2ccc(S(C)(=O)=O)cc2F)CC1,Emax,89%
